These results are taken from ChEMBL document CHEMBL4024754, “Development of Potent, Protease-Resistant Agonists of the Parathyroid Hormone Receptor with Broad β Residue Distribution” (J Med Chem, 2017).

Sequences of proteins named here, by UniProt entry; tags and fusion partners are left off. A change or cut given only in a name is not applied to a line headed by its entry.
UniProt Q03431: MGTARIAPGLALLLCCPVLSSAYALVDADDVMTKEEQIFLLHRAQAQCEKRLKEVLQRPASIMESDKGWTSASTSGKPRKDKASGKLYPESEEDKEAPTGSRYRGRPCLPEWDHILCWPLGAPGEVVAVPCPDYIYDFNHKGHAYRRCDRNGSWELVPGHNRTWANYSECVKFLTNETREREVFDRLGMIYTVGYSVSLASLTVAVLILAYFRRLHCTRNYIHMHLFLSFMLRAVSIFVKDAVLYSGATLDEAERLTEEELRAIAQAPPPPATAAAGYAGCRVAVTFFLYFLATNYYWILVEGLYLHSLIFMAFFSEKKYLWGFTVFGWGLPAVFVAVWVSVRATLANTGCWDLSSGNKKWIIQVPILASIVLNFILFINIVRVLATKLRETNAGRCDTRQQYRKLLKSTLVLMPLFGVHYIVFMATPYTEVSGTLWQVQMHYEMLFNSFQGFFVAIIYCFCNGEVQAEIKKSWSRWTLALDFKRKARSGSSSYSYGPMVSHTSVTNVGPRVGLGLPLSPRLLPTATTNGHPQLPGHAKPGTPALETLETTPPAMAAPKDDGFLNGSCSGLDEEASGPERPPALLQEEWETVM

Activity calls are given as the source filed them. No cut-off for these calls is given here.

Test [1] concerns the target Parathyroid hormone/parathyroid hormone-related peptide receptor (Homo sapiens) (UniProt Q03431). Kind of test: Agonist activity at human PTH1 receptor expressed in human GP2.3 cells assessed as induction of cAMP at 0.1 to 100 nM preincubated with simulated intestinal fluid for 20 mins followed by compound transfer to GP2.3 cells by luciferase reporter gene assay. It is filed as functional, cell-based.

Test [2] shares this target. Nature of the test: Agonist activity at human PTH1 receptor expressed in human GP2.3 cells assessed as induction of cAMP at 0.1 to 100 nM preincubated with simulated intestinal fluid for 45 mins followed by compound transfer to GP2.3 cells by luciferase reporter gene assay. It is filed as functional, cell-based.

In the case of ABALOPARATIDE, the result in test [1] was inactive. The outcome in test [2] was Active.
